# Assay results from CN115947847A.
# Molecular target: 表皮生长因子受体(epidermal growth factor receptor，EGFR) (human (human colorectal cancer cell line DiFi)) (UniProt P00533)
# Assay: cell-based or functional assay
substance,measurement,value
重组抗EGFR单克隆抗体的酸性组分(HPLC-CEX保留时间小于10min的组分) (antibody),"生物活性 (DiFi细胞增殖抑制实验, CCK-8, OD450) (% of standard (Erbitux150819 = 100%))",30
